Target: hAhR (Homo sapiens, UniProt P35869)
Test: DRE-luciferase transcriptional reporter assay in HEPG2 DRE-Luc cells, TCDD-induced (antagonist mode)
Settings: read-out: IC50 hAhR (antagonist mode), relative IC50, 3 nM TCDD, 24-hour incubation, firefly luciferase readout
Experimental: HEPG2 and HEPA1C1C7 cells were maintained in MEM and αMEM without nucleosides supplemented with 10% heat inactivated FBS respectively. Stably integrated DRE-luciferase cell lines were generated by transducing the both cell lines with Cignal XRE luciferase reporter (Qiagen) lentiviral particles according to the manufacturer protocol. For both cell lines stably integrated reporter cell lines were selected for the presence of 2 μg/mL puromycin. Following selection of stably integrated cell line pools, clonal cell lines were isolated by limiting dilution in 96-well plates. Transcriptional assays were performed by seeding 100 μL of cells at a density of 250,000 or 100,000 cells/mL, for HEPG2 and HEPA1C1C7 DRE-Luc cells respectively, into 96-well cell culture plates in OptiMEM supplemented with 0.5% heat inactivated FBS and allowed to attach overnight. […] Firefly luciferase activity was measured immediately following the addition of 50 μL Luciferase Assay Reagent (Promega). The percent maximal activity for each point was determined using the following equation: (RLUsample−RLUvehicle−TCDD)/(RLUvehicle+TCDD RLUvehicle−TCDD)*100. The relative IC50, defined as the compound concentration required to reduce the TCDD induced response between the top and bottom plateau of each individual dose response curve by half, for each compound was determined using Prism 7 (GraphPad Software).

By UniProt entry, the sequences of proteins in these tests, tags left out. Residues count along the entry.
UniProt P35869, 11-848 limits assumed: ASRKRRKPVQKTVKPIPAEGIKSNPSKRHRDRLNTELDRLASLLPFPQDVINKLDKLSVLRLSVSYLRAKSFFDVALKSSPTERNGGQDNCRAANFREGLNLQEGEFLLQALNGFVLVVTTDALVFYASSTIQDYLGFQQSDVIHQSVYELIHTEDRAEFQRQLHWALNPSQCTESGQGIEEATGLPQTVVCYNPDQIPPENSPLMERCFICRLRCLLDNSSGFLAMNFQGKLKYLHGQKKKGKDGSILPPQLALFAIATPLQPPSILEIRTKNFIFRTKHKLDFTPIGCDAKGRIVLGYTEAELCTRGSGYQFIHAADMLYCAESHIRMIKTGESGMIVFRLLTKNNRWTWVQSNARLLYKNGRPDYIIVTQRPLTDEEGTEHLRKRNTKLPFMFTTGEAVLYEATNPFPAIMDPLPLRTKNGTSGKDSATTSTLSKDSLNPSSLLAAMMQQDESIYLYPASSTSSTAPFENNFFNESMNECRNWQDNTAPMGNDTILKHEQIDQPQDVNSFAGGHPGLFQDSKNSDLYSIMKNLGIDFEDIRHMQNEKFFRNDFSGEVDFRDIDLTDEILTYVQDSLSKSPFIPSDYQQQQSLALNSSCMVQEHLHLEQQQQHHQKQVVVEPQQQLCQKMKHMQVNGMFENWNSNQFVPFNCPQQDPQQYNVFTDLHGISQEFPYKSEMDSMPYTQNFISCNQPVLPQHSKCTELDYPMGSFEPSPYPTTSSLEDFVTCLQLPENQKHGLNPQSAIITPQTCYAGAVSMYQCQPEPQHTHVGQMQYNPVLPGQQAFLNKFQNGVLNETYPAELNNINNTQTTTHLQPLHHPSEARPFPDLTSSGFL

Compound: Cc1cc(-c2ncc3cc(C(F)(F)F)ccc3n2)ccc1N1CCOc2cnn(CCN(C)C)c2C1=O
- IC50: 1 to 10 µM

From patent US12258354B2, “AhR modulators” (IDEAYA BIOSCIENCES, INC., priority 2018, dated 2025)
